Experimental data reported in publication PMC3187749, “Discovery of Diverse Small Molecule Chemotypes with Cell-Based PKD1 Inhibitory Activity” (PLoS ONE, 2011).

Key:
recombinant human PKD1 = molecular target: T1, recombinant human PKD1 (Homo sapiens, UniProt Q15139); test: In vitro radiometric PKD1 kinase assay; type: biochemical; conditions: mean ± range or SD of 2–4 independent experiments
T1 construct: His; purchased Millipore (Billerica, MA)
T1 sequence (Q15139 1-912): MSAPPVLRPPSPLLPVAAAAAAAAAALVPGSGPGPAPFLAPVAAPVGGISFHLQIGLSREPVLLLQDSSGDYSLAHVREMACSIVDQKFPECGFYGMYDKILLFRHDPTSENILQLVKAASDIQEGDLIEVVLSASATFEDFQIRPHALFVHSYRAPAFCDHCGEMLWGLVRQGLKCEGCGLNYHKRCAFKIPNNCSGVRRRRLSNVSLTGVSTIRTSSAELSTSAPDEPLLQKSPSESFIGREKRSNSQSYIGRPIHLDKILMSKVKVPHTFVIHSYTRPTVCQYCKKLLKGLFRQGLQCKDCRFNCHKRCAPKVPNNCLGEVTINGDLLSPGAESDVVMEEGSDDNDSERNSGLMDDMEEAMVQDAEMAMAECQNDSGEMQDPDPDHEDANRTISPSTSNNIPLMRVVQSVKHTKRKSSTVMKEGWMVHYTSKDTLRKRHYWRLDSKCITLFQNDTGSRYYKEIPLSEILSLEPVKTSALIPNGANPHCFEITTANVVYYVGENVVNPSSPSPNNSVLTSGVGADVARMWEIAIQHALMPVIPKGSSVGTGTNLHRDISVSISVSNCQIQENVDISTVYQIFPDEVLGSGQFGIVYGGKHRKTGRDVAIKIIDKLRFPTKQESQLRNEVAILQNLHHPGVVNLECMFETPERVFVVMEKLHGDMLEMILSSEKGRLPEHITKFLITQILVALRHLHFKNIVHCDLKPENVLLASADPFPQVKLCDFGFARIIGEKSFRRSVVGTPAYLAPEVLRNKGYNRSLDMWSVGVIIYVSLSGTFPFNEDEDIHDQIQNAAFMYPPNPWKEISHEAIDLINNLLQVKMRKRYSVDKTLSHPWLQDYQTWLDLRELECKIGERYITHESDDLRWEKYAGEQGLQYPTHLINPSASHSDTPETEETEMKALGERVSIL
Experimental: For compound IC50 confirmation studies, 1 ng/µL recombinant human PKD1 and 20 µg Syntide-2 substrate peptide in 30 µL kinase buffer (50 mM Tris-HCl, pH 7.5, 4 mM MgCl2 and 10 mM β-mercaptoethanol) were incubated with a concentration range (0–100 µM) of test compound. Kinase reactions were initiated with the addition of ATP (50 µM ATP, 1.0 µCi γ-^33P-ATP; Perkin Elmer, Boston, MA) and incubated for 20 min at 30°C. Twenty-five µL of the reaction was spotted onto Whatman P81 filter paper (Whatman Inc., Clifton, NJ). Filter papers were then washed three times in 0.5% phosphoric acid, air-dried, and counted using an LS6500 multi-purpose scintillation counter (Beckman Coulter, Fullerton, CA). IC50 determinations were performed using GraphPad Prism software 5.0. Radiometric PKD2 and PKD3 in vitro kinase assays were performed as previously described.

[1] = molecular target: T2, endogenous PKD1 (Ser916 phosphorylation) in LNCaP prostate cancer cells (Homo sapiens, UniProt Q15139); test: Western blot of PMA-induced phospho-Ser916-PKD1 in LNCaP cells; type: cell-based; conditions: PMA stimulation, n = 3, read-out: Cellular EC50 (phospho-Ser916-PKD1)
T2 construct: phosphorylation of endogenously expressed PKD1 Ser^916; endogenous in cells; host or cells: LNCaP prostate cancer cells
T2 sequence (Q15139 1-912): T1 sequence (Q15139 1-912)
Experimental: Briefly, prostate cancer cells (LNCaP) were exposed to test compounds. Cells were lysed in buffer (200 mM Tris-HCl, pH 7.4, 100 µM 4-(2-aminoethyl) benzenesulfonyl fluoride, 1 mM EGTA, and 1% Triton X-100) and cell lysates were subjected to SDS-PAGE then electrotransferred to nitrocellulose membranes. Membranes were blocked with 5% nonfat milk in Tris-buffered saline. Membranes were probed with a primary antibody then followed by a secondary anti-mouse or anti-rabbit secondary antibody conjugated to horseradish peroxidase (1∶1000, Bio-Rad). Bands were visualized by the enhanced chemiluminescence Western blotting detection system (Amersham Biosciences). The primary antibodies included p-S916-PKD1 antibody (Millipore) and GAPDH (Enzo Life Sciences, Plymouth Meeting, PA).
[…] Whole cell lysates were immunoblotted for phosphorylated Ser^916-PKD1 with GAPDH serving as a loading control.

Molecule | IC50 (recombinant human PKD1) | EC50 [1]
(6Z)-6-[4-(3-aminopropylamino)-6-methyl-1H-pyrimidin-2-ylidene]cyclohexa-2,4-dien-1-one [CID 5389142] | 1500 ± 100 nM | 22000 ± 3000 nM
Nc1nc2ccc([N+](=O)[O-])c(N)c2s1 [CID 5086667] | 1500 ± 300 nM | –
